Earlier results, collected in patent US8642793B1, “Biosurfactant produced by Aureobasidium pullulans” (Gyeongbuk Institute for Marine Bio-industry, priority 2012, dated 2014).

Conditions: reference liquids of Table 1, no amount given; cited from earlier work

In the case of Mercury, the Surface tension is listed as 486 dyne/cm.
